Measured values from PubChem BioAssay AID743126 (The Scripps Research Institute Molecular Screening Center, 2013).
Only a part is listed here, and it is no random draw. The source made the active and inactive calls.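 The calls were made as follows: active = inhibition above mean plus 3 SD of compounds lying within the high and low control bounds (cut at about 19% in these data); inactive = the rest.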

Sequences of proteins named here, by UniProt entry; tags and fusion partners are left off.
UniProt Q9NZ20, whole entry: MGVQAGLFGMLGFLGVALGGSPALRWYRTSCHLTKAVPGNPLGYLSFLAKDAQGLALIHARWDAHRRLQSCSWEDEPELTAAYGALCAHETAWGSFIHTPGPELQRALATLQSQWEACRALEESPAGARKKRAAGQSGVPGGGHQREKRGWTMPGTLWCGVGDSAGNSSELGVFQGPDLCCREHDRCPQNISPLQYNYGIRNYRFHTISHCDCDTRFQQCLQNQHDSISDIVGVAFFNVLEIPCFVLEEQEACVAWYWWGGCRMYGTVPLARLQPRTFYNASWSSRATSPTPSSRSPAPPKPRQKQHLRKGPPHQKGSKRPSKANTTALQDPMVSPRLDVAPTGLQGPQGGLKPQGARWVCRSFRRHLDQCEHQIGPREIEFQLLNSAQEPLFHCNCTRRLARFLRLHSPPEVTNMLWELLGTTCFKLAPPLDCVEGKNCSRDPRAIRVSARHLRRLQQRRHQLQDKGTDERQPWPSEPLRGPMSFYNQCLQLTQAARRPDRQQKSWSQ

target: Group 3 secretory phospholipase A2 (Homo sapiens) (UniProt Q9NZ20); experiment: HGIII-sPLA2 enzyme inhibition – biochemical, QFRET, BODIPY PC-A2 liposome substrate, primary screen (AID 743126); settings: QFRET BODIPY PC-A2 liposome hydrolysis, fluorescence; at 12.2 µM; stronger effect = higher value;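 also: 0% = median of test compound wells and 100% = no enzyme DMSO wells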

With `Cc1cc(SC(NC=O)C(Cl)(Cl)Cl)ncn1` (stereo unspecified) as the compound, how does the inhibition read?
The inhibition was inactive: -0.73%.
